The experiment concerns the target T1, Human CFHL1-Y402H-His (ATX-P-421) (human).
T1 construct: also called human CFHL-1 (Y402H) protein
T1 chain: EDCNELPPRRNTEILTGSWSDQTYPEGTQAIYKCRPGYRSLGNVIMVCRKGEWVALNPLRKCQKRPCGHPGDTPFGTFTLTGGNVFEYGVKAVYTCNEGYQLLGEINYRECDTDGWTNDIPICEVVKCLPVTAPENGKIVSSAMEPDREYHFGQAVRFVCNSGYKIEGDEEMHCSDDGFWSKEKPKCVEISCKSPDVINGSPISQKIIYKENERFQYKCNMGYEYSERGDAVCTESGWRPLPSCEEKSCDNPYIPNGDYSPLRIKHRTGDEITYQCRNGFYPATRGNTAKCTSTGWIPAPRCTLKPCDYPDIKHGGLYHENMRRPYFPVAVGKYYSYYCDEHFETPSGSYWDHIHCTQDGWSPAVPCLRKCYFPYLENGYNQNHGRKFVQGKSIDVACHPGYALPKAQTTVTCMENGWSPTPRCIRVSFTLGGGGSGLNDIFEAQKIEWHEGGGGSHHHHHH
The experiment can be described thus: Carterra LSA biosensor, mAb printed on chip, human CFHL1-Y402H-His at 380 nM. On the procedure:
Experiments were also conducted to determine the reactivity of the CFHR4 antibodies with the human CFHL-1 (Y402H) protein (FIG. 10). The binding experiments were performed on Carterra LSA with a running buffer of PBS pH 7.40, 1% BSA, 0.05% Tween20. Antibodies were covalently printed on an HC30M chip. Chip was activated with 33 mM s-NHS and 133 mM EDC in 100 mM MES pH 5.5 for 7 minutes. Antibodies at 10 mg/ml in acetic acid buffer pH 4.5 were used for printing for 10 min. The printed chip was then quenched with 1 M ethanolamine pH 8.5 for 7 min. For the reactivity assay, ATX-P-421, human CFHL1-Y402H-His, at 380 nM was tested with 5 min association followed by 15 min dissociation. Results were processed and analyzed in Carterra LSA Kinetics Software. The data was referenced with the interstitial reference spots and double-referenced to a buffer cycle, and then the responses (nm) after association were reported. Isotype control was used to determine the cutoff response for positive binding.

B1: ATX-P-604 (antibody, human IgG1, kappa, N297A, V domains shown)
VH: QVQLQQSGPGLVKPTQTLSLTCAISGDSVSSNSAAWNWIRQSPSRGLEWLGRTYYRSKWFNGYAVSVKSRITINPDASKNQFSLHLKSVTDEDTAVYYCATDRGELLHWYFDLWGRGTLVTVSS
VL: EIVLTQSPDTLSLSPGERATLSCRASQTIRSSYLAWYQLKPGQAPRLLIYGASSRATGIPDRFSGSGSGTDFTLSISRLEPEDFAVYYCQQYGRSIIFGGGTKVEIKR
As for B1, the binding result is “binds”.

(Values after US20250289873A1 (BROADWING BIO, published 2025).)
